High-throughput results deposited in PubChem BioAssay by National Center for Advancing Translational Sciences (NCATS).
Sampled rows, rich in hits. Any-hit rate of the full collection: about 2.3%.
Mito fusion yeast: mitochondrial division inhibition or fusion activation; S. cerevisiae fusion-defective mutant growth rescue, CellTiterGlo 48 h; 320,000 tested, 0.23% active; Potency, µM (doses to about 46.1 µM), actives largely listed as activators; AID 485298; further: nearly all actives have a fitted effect of over 45% in size
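Yeast fusion mutant, YPEG (non-fermentable carbon), compound, 48 h at 37C non-permissive; CellTiterGlo added, 10 min RT, luminescence read. Rescued growth = division inhibition.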
A549 tox: A549 cytotoxicity, counter-screen for Nrf2 inhibitors; A549 ARE-Fluc cells, CellTiter-Fluor viability, 18-24 h; Potency, µM (top dose mostly 46 µM), most hits filed as inhibitors; 390,000 tested, 0.16% active; AID 504648
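A549 ARE-Fluc cells in 5% FBS OPTI-MEM, 5000 cells/well, rested 2 h then exposed to compounds in concentration-response for 18-24 h at 37 °C. Viability by CellTiter-Fluor fluorescence (Ex 405/Em 525) after 30 min; luciferase luminescence (BugLite, 15 min, RT) read afterwards.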
miR-21 reporter: raises the signal of a miR-21 reporter | HeLa miR-21 FLuc reporter, luciferase, 48 h | Potency, µM (highest dose often 38.3 µM) | 340,000 tested, under 10 active | AID 2288; active = well fitted rising curve with a large enough effect; inconclusive = small, poorly fitted or top-dose-only effect; inactive = no such curve, though single readings can be large or run the other way;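 note: miR-21 action dims this reporter so a rising signal means less miR-21 action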
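HeLa cells stably expressing CMV-driven firefly luciferase with a downstream miR-21 binding sequence, endogenously expressing miR-21, were treated with titrations (up to about 40uM final) for 48 hours at 37 degree Celsius. Luciferase luminescence was read after lysis.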
Nrf2 activator: Nrf2 pathway activation; 410,000 tested, 0.31% active; Potency, µM (series often up to 46.1 µM), hits mostly activators; AREc32 ARE-luciferase reporter (MCF7-derived line), luminescence, 24 h; further: nearly all actives have a fitted effect of over 65% in size
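For detection, Steady-Glo was added and plates sat 30 min at RT; before that, AREc32_Fluc cells grown overnight in OPTI-MEM/5% FBS had been treated with 23 nL compound for 24 hr at 37 deg C.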
Nrf2 inh: Nrf2 pathway inhibition. A549 ARE-Fluc reporter, luciferase luminescence, 18-24 h. Potency, µM (doses to about 46 µM), usual class: inhibitors. AID 504444. 360,000 tested, 2.1% active; further: nearly all actives have a fitted effect of over 60% in size
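Nrf2 function is reported as luminescence of an ARE-controlled luciferase in A549 cells. Compounds were tested at several concentrations, and a CellTiter-Fluor read on the same wells flagged cytotoxicity.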
A number is an active result; i = inactive; ? = inconclusive; nt = not tested or not shown. Unless noted, the call rests on the fitted dose curve; in most records, active means well fitted curve in the direction sought with a large enough effect; inconclusive means small, poorly fitted or top-dose-only effect, or another doubt; inactive means no such curve, though single readings can be large; an effect the other way counts as inactive or inconclusive.

SMILES	Mito fusion yeast	A549 tox	miR-21 reporter	Nrf2 activator	Nrf2 inh
COc1ccc(N2CCN(CCCNC(=O)C3CCC(CNc4nc(=S)[nH]c5ccccc45)CC3)CC2)cc1 (stereo not drawn)	i	?	i	i	6.5µM
CCCCNC(=O)C1CCC(CNc2nc(=S)[nH]c3ccccc23)CC1 (stereo not drawn)	i	i	i	i	i
Cc1ccc(OCCCCn2cnc3ccccc32)cc1	i	i	i	i	?
Cc1ccccc1OCCCCn1cnc2ccccc21	i	i	i	i	6.5µM
Cc1ccc(OCCCn2c(CO)nc3ccccc32)cc1	i	i	i	i	nt
c1ccc(OCCCCn2cnc3ccccc32)cc1	i	i	i	i	23µM
Cc1ccccc1OCCCCn1c(CO)nc2ccccc21	i	i	i	i	23µM
Cc1noc(C)c1-c1cccc(-c2nn3c(=O)cc(N4CCNCC4)nc3s2)c1	nt	i	nt	nt	i
Cc1cccc(Cn2c(CNS(=O)(=O)c3ccc4c(c3)CCCC4)nc3cccnc32)c1	nt	i	i	i	nt
Cc1ccc(C)c(NC(=S)NC(NC(=O)Cc2cccc3ccccc23)C(Cl)(Cl)Cl)c1 (stereo not drawn)	i	21µM	i	i	21µM
COc1ccc(NC(=S)NC(NC(=O)c2cccc3ccccc23)C(Cl)(Cl)Cl)c([N+](=O)[O-])c1 (stereo not drawn)	i	?	i	i	26µM
Cc1ccc(C)c(NC(=S)NC(NC(=O)N(C)C)C(Cl)(Cl)Cl)c1 (stereo not drawn)	i	i	i	i	?
COc1cccc(C2=CC(c3ccccc3O)NC(C)(C)N2)c1 (stereo not drawn)	nt	i	nt	nt	i
O=C(NC(=S)N(CCc1ccccc1)CCc1ccccc1)c1ccco1	i	i	i	?	18µM
O=C(NC(=S)Nc1cccc(Cl)c1N1CCCCC1)c1ccco1	i	i	i	i	?
COc1cc(C(=O)Nc2ccccc2N2CCCCC2)cc(OC)c1OC	i	i	i	i	?
O=C(NC(=S)Nc1ccccc1N1CCCC1)c1ccco1	i	i	i	14µM	i
O=C(NC(=S)Nc1ccccc1N1CCCCC1)c1ccco1	i	i	i	i	i
O=C(NC(=S)Nc1ccccc1Cl)c1ccco1	i	i	i	13µM	?
COc1cc(C(=O)NC(=S)Nc2ccccc2N2CCCC2)cc(OC)c1OC	i	i	i	i	18µM
COc1ccc(/C=N\NC(=O)COc2ccc(C(C)(C)C)cc2)cc1Cn1nc(C)cc1C	i	15µM	i	i	nt
CCO[C@H]1OC(C(=O)N2CCN(Cc3ccccc3)CC2)=C[C@@H](c2ccc(C(F)(F)F)cc2)[C@@H]1CCCO	i	?	?	i	29µM
O=C(Nc1ccc(Cl)cc1)C1CCN(S(=O)(=O)c2ccc(Br)s2)CC1	nt	i	?	i	23µM
CCOc1ccccc1NC(=O)COn1nnc2ccc(Cl)cc21	11µM	i	i	i	i
COc1ccc(-c2ccc(C(C)=O)cc2)cc1C1C2C=CCCC2(C)C(=O)N1Cc1ccccc1 (stereo not drawn)	nt	?	nt	nt	16µM
SMILES	Mito fusion yeast	A549 tox	miR-21 reporter	Nrf2 activator	Nrf2 inh
COc1ccc(-c2ccc(C(C)=O)cc2)cc1[C@H]1[C@@H]2C=CCC[C@@]2(C)C(=O)N1Cc1ccccc1	i	i	i	i	21µM
COc1ccc(-c2ccc(C)cc2)cc1C1C2C=CCCC2(C)C(=O)N1Cc1ccccc1 (stereo not drawn)	nt	i	nt	nt	i
O=S(=O)(c1ccc(-c2csc(=Nc3ccc(F)cc3)n2CCCCCCO)cc1)N1CCCC1	nt	?	?	i	23µM
CC(=O)c1cccc(N=c2scc(-c3ccc(S(=O)(=O)N4CCOCC4)cc3)n2CCO)c1	i	i	i	i	15µM
CC(C)Cn1c(-c2ccc(S(=O)(=O)N3CCCC3)cc2)csc1=Nc1ccccc1	nt	i	?	i	16µM
OCCCn1c(-c2ccc(F)cc2)csc1=Nc1ccc(F)cc1	nt	i	i	i	i
COc1ccc(NS(=O)(=O)c2c(C)cc(C)cc2C)cc1	i	?	i	i	21µM
COc1cccc(NS(=O)(=O)c2c(C)cc(C)cc2C)c1	?	i	i	i	i
Cc1ccccc1C(=O)Nc1ccc(-c2nc3ccc(C(=O)c4ccccc4)cc3[nH]2)cc1	i	i	i	i	21µM
O=S(=O)(c1ccc(Cl)s1)N1CCN(C/C=C/c2ccccc2)CC1	i	i	i	i	10µM
O=S(=O)(c1cccs1)N1CCN(C/C=C/c2ccccc2)CC1	i	i	i	i	nt
Cc1ccc(CN2CCC(CNc3ncnc4onc(-c5ccc(Cl)cc5)c34)CC2)cc1	nt	i	i	i	?
CCc1c(C)nc2ncnn2c1N1CCCC(C(=O)NCc2ccc3c(c2)OCO3)C1 (stereo not drawn)	i	i	i	i	10µM
CCc1c(C)nc2ncnn2c1N1CCCC(C(=O)Nc2ccc(NC(C)=O)cc2)C1 (stereo not drawn)	i	i	i	i	i
Cc1cccn2c(=O)c3cc(C(=O)NCCN4CCOCC4)c(=N)n(Cc4ccc(F)cc4)c3nc12	i	?	i	i	16µM
Cc1cccn2c(=O)c3cc(C(=O)NCCN4CCOCC4)c(=N)n(CCN4CCOCC4)c3nc12	i	i	i	i	i
CCCCN(CCCC)S(=O)(=O)c1ccc(NC(=O)c2cccs2)cc1	i	?	?	i	18µM
CCCCN(CCCC)CCNC(=O)CNC(=O)c1cccs1	32µM	i	i	i	i
CCCCNC(=O)CNC(=O)c1cccs1	i	i	i	i	nt
Cc1cc(C)nc(NS(=O)(=O)c2ccc(NC(=O)c3cccs3)cc2)n1	i	i	i	i	nt
COc1ccc(C(C(=O)NCc2ccccc2)N(C(=O)Cn2nnc3ccccc32)c2ccc(OC)cc2)cc1 (stereo not drawn)	nt	i	i	i	i
Clc1ccc(-c2csc(N/N=C/c3cccnc3)n2)c(Cl)c1	i	i	i	i	13µM
CCOc1ccc(-c2cc(C)n3nc(C(=O)Nc4cc(Cl)ccc4O)cc3n2)cc1	nt	i	i	i	i
O=C(CSc1n[nH]c(-c2ccc(S(=O)(=O)NC3CCCCC3)cc2)n1)N1CCCC1	i	i	i	i	16µM
O=C(COc1ccc(S(=O)(=O)NC2CCCC2)cc1)N1CCCCC1	i	i	i	i	i
O=C(Nc1cccc(-c2nnc(-c3ccco3)o2)c1)C(c1ccccc1)c1ccccc1	i	i	i	i	21µM
O=C(Nc1cccc(-c2nnc(-c3ccco3)o2)c1)c1ccccc1	i	i	i	i	?
CC(=O)Oc1ccc(C(=O)Nc2cccc(-c3nnc(-c4ccco4)o3)c2)cc1	i	?	i	i	16µM
Cc1ccc(C2(C)CC(C)(C)N(C(=O)CSc3nnc(C)s3)c3ccccc32)cc1 (stereo not drawn)	?	?	i	i	21µM
